Reference: ChEMBL document CHEMBL5625167, “In vitro bioevaluation and docking study of dihydrosphingosine and ethambutol analogues against sensitive and multi-drug resistant Mycobacterium tuberculosis” (Eur J Med Chem, 2023)

Experiments:
[1] = system: Mycolicibacterium smegmatis; assay: Antimycobacterial activity against Mycobacterium smegmatis ATCC607 assessed as 10 log reduction in bacterial viability at 16 uM incubated for 48 to 72 hrs by time kill assay in presence of rifampicin; settings: time 48-72 hrs
[2] = system: Mycolicibacterium smegmatis; assay: Antimycobacterial activity against Mycobacterium smegmatis ATCC607 assessed as log reduction in bacterial viability at 16 uM incubated for 24 hrs by time kill assay

CCCCCCCCCCCCCCCCCCCC(CNCC)NC(=O)OC(C)(C)C (configuration not stated)
log(activity) [1]: 2.6 | log(activity) [2]: 2.7
